## Antibody variant affinities, Ab-14 light chain, assay 1

The measurements come from Engelhart et al. 2022 (doi:10.1038/s41597-022-01779-4) through the FLAb antibody collection.

The target is the same throughout: PDVDLGDISGINAS, from the HR2 region of SARS-CoV-2 spike.

Parent scFv Ab-14: VH joined to VL by three GGGGS repeats. Changes lie in the light chain CDRs alone.
VH: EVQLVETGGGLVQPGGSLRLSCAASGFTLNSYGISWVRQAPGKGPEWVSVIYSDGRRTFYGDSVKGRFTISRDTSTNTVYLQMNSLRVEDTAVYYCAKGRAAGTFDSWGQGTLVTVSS
VL: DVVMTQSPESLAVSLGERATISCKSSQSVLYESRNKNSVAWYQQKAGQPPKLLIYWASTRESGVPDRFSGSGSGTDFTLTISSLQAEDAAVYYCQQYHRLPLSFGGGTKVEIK

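Phage display of a naive human antibody library on the peptide gave the parent. In library AAYL50, one, two or three CDR residues were substituted; doubles and triples were drawn at random. In AlphaSeq, yeast of one mating type display the scFv and yeast of the other type display the target. After mating in shaken culture at 30 °C for 16 h, diploids were selected and their barcode pairs sequenced. Scores were corrected for input abundance and mapped to Kd with protein pairs of known affinity run in the same pool. Each pool was mated in three replicate cultures.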

The parent's light chain CDRs are KSSQSVLYESRNKNSVA, WASTRES, QQYHRLPLS; each variant's own CDRs replace them letter for letter.
This list gathers variants with a substitution at R60 (VL, numbered from residue 1).
Values are apparent Kd, the geometric mean of the replicates that gave a signal; lower means stronger binding.
A pair that was not seen in any replicate is written "not detected"; this usually means weak binding, but a binder can also be missed.
As a blank, each scFv also met three strains without target: over library AAYL50, 18% of these pairings were detected, typically at 15 µM and seldom below 970 nM. Also given: how often the same scFv was detected with the empty control strains.

CDR-L1,CDR-L2,CDR-L3,Kd (apparent),detected,signal with controls
KSSQSVLYESRNKNQVA,WASTQES,QQYHMLPLS,not detected,0/3,1/9
KSSQSHLYESRNKNSVA,WASTNES,QQYHRLPLQ,120 µM,2/3,4/9
KSSQSVFYESRNKNSVA,WASTAES,QQYHRLPLS,83 nM,3/3,0/9
KSSQSVLYESRNKNSVI,WASTNES,QQYHRLPLS,not detected,0/3,1/9
KSSWSVLYESRNKNSVA,WASTYER,QQYHRLPLS,31 µM,3/3,4/9
KSSQSVLYESRNKNSVA,WASTNVS,QHYHRLPLS,not detected,0/3,0/9
KSSQSVLYESRNKNSVC,WASTPES,QQYHRLCLS,not detected,0/3,3/9
KSSQSVLYESRNKNSVA,WASTKED,QQGHRLPLS,not detected,0/3,2/9
GSSQSVLYESRNKNSVA,WASTVES,QQYHRGPLS,1.7 µM,1/3,1/9
KSSQSVLYESRNKNSVI,WASTPES,QQYHRLPLS,not detected,0/3,3/9
KSSQSVLYESRNKNGVA,WASTYES,QQYHRLPLS,not detected,0/3,0/9
KSSQSVLYEMRNNNSVA,WASTAES,QQYHRLPLS,50 µM,3/3,6/9
KSSQSVLYESRNKNSVA,WASTGEF,QQYHRLPLF,not detected,0/3,0/9
KSSQSVLYEIRNKNSVA,WASTTES,QQYHRLPIS,48 µM,2/3,3/9
KSSQSVLYPSRNKNPVA,WASTIES,QQYHRLPLS,1.5 µM,1/3,0/9
KSSQSVLFESRNKNSVA,WASTEES,QQYHRDPLS,1.5 µM,1/3,0/9
KSSQSVLYKSRNKNRVA,WASTNES,QQYHRLPLS,not detected,0/3,2/9
KSSQSVLYESRYKNSVA,SASTLES,QQYHRLPLS,not detected,0/3,0/9
KSSRSVLYESRNKNSVA,WASTYES,QQYHRHPLS,not detected,0/3,1/9
KSSRSVLYWSRNKNSVA,WASTSES,QQYHRLPLS,not detected,0/3,6/9
KSSQSVLYESRNKNSVA,WAVTDES,QQYHRLPLI,not detected,0/3,2/9
KSSQSVLYESRNKNSVA,WASTAES,QQYHRLPQS,not detected,0/3,2/9
KSSGSVLYESRNKNWVA,WASTDES,QQYHRLPLS,not detected,0/3,1/9
KSSQSVLYESRFKNSVM,WASTIES,QQYHRLPLS,not detected,0/3,0/9
KSSQSVLYESRNKNSVA,WQSSTES,QQYHRLPLS,350 µM,1/3,1/9
KSSQSVLYESRNKNSVS,WASHMES,QQYHRLPLS,not detected,0/3,0/9
KSSQSVLYESRNKNSVA,WAHTSYS,QQYHRLPLS,980 nM,2/3,0/9
KSSQSVLYESRNFNSVA,WASTGEM,QQYHRLPLS,not detected,0/3,3/9
KSLTSVLYESRNKNSVA,WASTYES,QQYHRLPLS,not detected,0/3,2/9

The opening 3 entries, copied out:

CDR-L1	CDR-L2	CDR-L3	Kd (apparent)	detected	signal with controls
KSSQSVLYESRNKNQVA	WASTQES	QQYHMLPLS	not detected	0/3	1/9
KSSQSHLYESRNKNSVA	WASTNES	QQYHRLPLQ	120 µM	2/3	4/9
KSSQSVFYESRNKNSVA	WASTAES	QQYHRLPLS	83 nM	3/3	0/9